The numbers were not newly measured in patent US20250154129A1, “CRYSTALLINE PHARMACEUTICALLY ACCEPTABLE SALT AND POLYMORPHIC FORM OF THE GLUTAMINYL CYCLASE INHIBITOR VAROGLUTAMSTAT” (VIVORYON THERAPEUTICS N.V., priority 2023, published 2025), which cites them from elsewhere.

The series deals with extracellular amyloid-β plaques in the brain. To be noted: early AD patients; time- and dose-dependent; cited from earlier work.

Regarding “aducanumab: monoclonal IgG1 antibody that targets extracellular amyloid-β plaques in the brain”, the Aβ deposits entry is “persistent reductions”.
